Reference: ChEMBL document CHEMBL4342505, “Achieving In Vivo Target Depletion through the Discovery and Optimization of Benzimidazolone BCL6 Degraders” (J Med Chem, 2020)

Amino acid sequences for entries named in this document (tags omitted).
UniProt Q9Y618, whole entry, looked up: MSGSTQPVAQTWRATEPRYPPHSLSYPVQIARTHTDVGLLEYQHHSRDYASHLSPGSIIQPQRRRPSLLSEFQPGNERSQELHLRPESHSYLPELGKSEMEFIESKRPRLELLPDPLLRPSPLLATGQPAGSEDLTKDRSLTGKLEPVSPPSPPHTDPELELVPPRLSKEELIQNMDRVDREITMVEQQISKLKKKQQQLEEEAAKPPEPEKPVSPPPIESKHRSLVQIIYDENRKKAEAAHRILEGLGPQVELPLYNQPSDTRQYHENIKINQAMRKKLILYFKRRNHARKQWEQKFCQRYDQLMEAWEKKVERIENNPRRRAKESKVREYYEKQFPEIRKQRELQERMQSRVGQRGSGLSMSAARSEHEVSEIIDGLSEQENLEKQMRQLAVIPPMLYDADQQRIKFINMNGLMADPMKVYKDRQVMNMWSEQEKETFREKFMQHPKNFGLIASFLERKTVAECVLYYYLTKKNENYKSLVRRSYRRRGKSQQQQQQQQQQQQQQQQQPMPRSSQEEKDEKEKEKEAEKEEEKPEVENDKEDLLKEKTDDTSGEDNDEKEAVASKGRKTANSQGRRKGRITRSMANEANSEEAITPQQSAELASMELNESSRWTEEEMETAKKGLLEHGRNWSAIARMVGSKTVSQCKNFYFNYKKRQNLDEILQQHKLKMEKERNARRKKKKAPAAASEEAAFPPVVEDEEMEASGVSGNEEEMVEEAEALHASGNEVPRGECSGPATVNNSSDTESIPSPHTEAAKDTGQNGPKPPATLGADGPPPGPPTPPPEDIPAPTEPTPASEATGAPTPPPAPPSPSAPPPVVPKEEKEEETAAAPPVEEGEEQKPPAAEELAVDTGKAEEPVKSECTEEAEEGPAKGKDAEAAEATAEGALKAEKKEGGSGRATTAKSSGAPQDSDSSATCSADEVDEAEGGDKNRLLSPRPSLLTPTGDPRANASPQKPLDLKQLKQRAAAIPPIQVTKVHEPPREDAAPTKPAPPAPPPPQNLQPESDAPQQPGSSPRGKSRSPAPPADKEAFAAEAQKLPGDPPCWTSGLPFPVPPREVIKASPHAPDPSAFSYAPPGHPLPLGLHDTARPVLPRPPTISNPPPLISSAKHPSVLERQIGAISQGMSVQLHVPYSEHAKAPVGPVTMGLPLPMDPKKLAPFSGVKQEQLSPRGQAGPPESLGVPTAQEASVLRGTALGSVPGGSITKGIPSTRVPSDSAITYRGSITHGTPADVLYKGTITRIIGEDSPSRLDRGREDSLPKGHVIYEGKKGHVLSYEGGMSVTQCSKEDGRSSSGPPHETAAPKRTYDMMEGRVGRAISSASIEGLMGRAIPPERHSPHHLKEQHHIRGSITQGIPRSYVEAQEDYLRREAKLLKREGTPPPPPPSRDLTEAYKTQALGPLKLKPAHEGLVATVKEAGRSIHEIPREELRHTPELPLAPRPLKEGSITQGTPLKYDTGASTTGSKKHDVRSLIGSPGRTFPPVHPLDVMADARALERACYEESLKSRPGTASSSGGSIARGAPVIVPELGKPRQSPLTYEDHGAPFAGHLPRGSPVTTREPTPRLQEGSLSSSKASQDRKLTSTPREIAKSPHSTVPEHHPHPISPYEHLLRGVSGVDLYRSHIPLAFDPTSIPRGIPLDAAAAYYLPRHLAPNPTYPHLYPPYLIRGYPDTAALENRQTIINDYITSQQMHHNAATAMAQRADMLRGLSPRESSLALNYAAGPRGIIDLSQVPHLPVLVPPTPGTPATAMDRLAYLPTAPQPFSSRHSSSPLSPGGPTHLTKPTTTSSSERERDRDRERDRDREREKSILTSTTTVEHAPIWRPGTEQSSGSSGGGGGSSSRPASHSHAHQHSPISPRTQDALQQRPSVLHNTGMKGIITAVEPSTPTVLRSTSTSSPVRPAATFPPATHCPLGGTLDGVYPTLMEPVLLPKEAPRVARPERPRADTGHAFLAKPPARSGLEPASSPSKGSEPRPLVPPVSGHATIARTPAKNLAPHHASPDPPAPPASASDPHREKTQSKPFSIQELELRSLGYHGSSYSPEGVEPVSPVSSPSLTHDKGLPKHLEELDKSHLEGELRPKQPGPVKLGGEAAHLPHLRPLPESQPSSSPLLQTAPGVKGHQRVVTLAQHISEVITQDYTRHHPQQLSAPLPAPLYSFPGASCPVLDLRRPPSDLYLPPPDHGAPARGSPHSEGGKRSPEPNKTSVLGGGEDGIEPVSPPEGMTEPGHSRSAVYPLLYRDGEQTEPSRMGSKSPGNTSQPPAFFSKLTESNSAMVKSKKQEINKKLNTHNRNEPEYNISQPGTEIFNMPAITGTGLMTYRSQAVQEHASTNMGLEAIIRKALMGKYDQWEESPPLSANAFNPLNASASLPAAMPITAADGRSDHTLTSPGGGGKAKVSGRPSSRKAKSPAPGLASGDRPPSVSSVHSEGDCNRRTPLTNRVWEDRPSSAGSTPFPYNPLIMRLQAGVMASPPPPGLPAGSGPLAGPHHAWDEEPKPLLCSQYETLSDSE

Legend:
BCL-6/NCOR2 = BCL-6/NCOR2 (Homo sapiens, UniProt Q9Y618+P41182)
[1] = Kinetic solubility in HEPES buffer containing 5% DMSO at pH 8 incubated for 20 hrs by NMR analysis; format: physicochemical; conditions: read-out: Kinetic_solubility

For `Cn1c(=O)n(C)c2cc(Nc3ccnc(Cl)c3C#N)ccc21`, the DC50 (BCL-6/NCOR2) was > 30 µM.

Molecule `Cn1c(=O)n(CCC(C)(C)O)c2cc(Nc3ncnc(Cl)c3C#N)ccc21` has a solubility kinetic at 20 h [1] of 291 µM (≈ 113 µg/mL).

In brackets after ≈: the same amount, converted by molar mass.
